# Literature values, collected in patent US20060177438A1, “Methods of altering absorption of hydrophobic compounds” (New England Medical Center, priority 2005, published 2006).
# Protein sequences, listed by entry. Tags and fused reporters are not part of them.
# UniProt P32239, whole entry, species assumed: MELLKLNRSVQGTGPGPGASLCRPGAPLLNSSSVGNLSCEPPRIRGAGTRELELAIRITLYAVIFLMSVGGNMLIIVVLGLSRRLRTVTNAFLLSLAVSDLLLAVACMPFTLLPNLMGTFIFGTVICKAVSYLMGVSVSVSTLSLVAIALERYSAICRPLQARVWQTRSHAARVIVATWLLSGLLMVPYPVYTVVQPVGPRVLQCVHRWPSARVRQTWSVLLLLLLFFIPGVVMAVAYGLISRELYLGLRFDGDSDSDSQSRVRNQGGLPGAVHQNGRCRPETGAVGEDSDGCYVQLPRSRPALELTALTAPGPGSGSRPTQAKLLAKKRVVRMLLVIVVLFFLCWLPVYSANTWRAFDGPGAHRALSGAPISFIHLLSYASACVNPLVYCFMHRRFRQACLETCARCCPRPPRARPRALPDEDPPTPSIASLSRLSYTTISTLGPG
# UniProt P32238, whole entry: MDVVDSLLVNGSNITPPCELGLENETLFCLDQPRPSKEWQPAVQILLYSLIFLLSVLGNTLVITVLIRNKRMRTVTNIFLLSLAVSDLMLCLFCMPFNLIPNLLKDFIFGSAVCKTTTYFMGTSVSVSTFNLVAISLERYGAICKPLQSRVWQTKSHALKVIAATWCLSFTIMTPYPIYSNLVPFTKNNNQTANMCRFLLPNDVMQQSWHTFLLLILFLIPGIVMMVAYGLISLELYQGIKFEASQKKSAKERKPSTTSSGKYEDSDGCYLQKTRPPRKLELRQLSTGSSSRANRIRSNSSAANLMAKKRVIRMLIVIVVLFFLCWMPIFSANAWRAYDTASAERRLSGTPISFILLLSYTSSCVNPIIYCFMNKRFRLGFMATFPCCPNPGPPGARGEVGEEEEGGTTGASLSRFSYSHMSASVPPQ
# Columns and labels:
# CCK 2 receptor (CCK-2R) [1] = molecular target: T1, CCK 2 receptor (CCK-2R) (Homo sapiens, UniProt P32239); details: brain membranes; cited from earlier work
# CCK 2 receptor (CCK-2R) [2] = molecular target: T1, CCK 2 receptor (CCK-2R); details: parietal cells; cited from earlier work
# CCK 1 receptor = CCK 1 receptor (Homo sapiens, UniProt P32238); details: cited from earlier work
substance,measurement,setting,value
Cholecystokinin [CCK],higher affinity for CCK than for gastrin,CCK 2 receptor (CCK-2R) [1],6-10 fold
same,higher affinity for CCK than for gastrin,CCK 2 receptor (CCK-2R) [2],1-2 fold
same,greater affinity for CCK than for gastrin,CCK 1 receptor,> 100 times

# Like-named read-outs stand apart in the source and are kept apart here.
